{
  "source": "patent US20200277350A1",
  "biological_target": "Human IL10R1 (R&D, 9100-R1-050) (human) (UniProt Q13651)",
  "assay": "ELISA, plate coated with human IL10R1, detection with goat anti-hIgG-HRP",
  "data": [
    {"substance": "Erb-(IL10)2 (Fc fusion)", "values": [
      {"measurement": "EC50", "value": 2.94, "unit": "ng/mL"}
    ]}
  ]
}
